Measured affinities in a library of Ab-14 heavy chain variants

All variants were tested on one target, the spike HR2 peptide PDVDLGDISGINAS (SARS-CoV-2).

The variants keep the light chain, the linker and the frameworks of Ab-14 (scFv order VH, three GGGGS repeats, VL).
VH: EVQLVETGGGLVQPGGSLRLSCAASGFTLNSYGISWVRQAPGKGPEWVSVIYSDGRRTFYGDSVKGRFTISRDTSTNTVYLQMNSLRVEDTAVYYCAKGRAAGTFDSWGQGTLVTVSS
VL: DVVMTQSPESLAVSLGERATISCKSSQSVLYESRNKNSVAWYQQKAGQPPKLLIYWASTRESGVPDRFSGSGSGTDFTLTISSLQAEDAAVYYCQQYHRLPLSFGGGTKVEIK

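The starting antibody came from a phage panning campaign against this peptide. These sequences belong to a second round, designed from the earlier measurements on random variants of the parent. Several design methods are mixed in this list. In AlphaSeq, yeast of one mating type display the scFv and yeast of the other type display the target. Pairs that bind mate more often; barcode pairs of the diploids are counted by sequencing. Read counts were normalised to the haploid input and turned into Kd by a linear fit to BCL2-family pairs of known affinity, for each replicate. The assay was run in six technical replicates.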

Variants are written as CDR1, CDR2 and CDR3 of the heavy chain (limits as in the source). Parent: GFTLNSYGIS, VIYSDGRRTFYGDSVK, GRAAGTFDS. This list holds designs with more than six substitutions. Each Kd is an estimate from the mating assay, the geometric mean of the replicates in which the pair was seen; lower is stronger. A pair that was not seen in any replicate is written "nd"; this usually means weak binding, but a binder can also be missed.

Variant GYDMEDYGIS | VIYADGVRQFYHDNFK | GQLAGTFLL showed 2.1 µM (1 of 6 replicates). Variant GFDLNEYGIS | VIYADGMRKAYTDSVK | GNVAGTFDV showed 470 pM (6 of 6 replicates). Variant GFDLNEYGIS | VIYADGRRTAYADSVK | GNEAGTFDV showed 310 pM (6 of 6 replicates). For GDSLNEYGIS | VIYADGVRARYADAVK | GENDGLFDQ, the assay gave nd (0 of 6 replicates). Variant GKGLDEYGVS | VIYADGKRHQYAEDVK | GGIAGQFLV gave nd (0 of 6 replicates).

With GFDLGEYGIS | VIYADGQRFAYAQQFK | GEAGGAFDL the result was nd (0 of 6 replicates). Variant GFDLNEYGIS | VIYADGRRKFYADKVK | GEVAGTFNV showed 390 pM (6 of 6 replicates). Variant GFDLDEYGIS | VIYADGRRTAYADSVK | GENAGTFDT showed 340 pM (6 of 6 replicates). For GFNIDEYGIS | VIYADGVRTAYADKVK | GFNQVLSVD, the assay gave nd (0 of 6 replicates). With GFNLDEYGIS | VIYADGMRTFYSDNVK | GEAGGTFDI the result was 5.3 nM (6 of 6 replicates).

With GFDLNEYGIS | VIYADGQRTAYADSVK | GKVAGTFDV the result was 240 pM (6 of 6 replicates). Variant GFSLDEYGIS | VIYADGRRTFYQDSVK | GNVAGTFDV gave 250 pM (6 of 6 replicates). With GFDLNEYGIS | VIYADGMRTAYANSVK | GNVAGTFDV the result was 150 pM (6 of 6 replicates). With GFDLDEYGIS | VIYADGRRTFYADSVK | GGNAGTFDV the result was 400 pM (6 of 6 replicates). Variant GFDIQEYGIS | VIYADGERVAYTNSVK | GTQSGSNIN showed 28 nM (1 of 6 replicates).

Variant GFDLNEYGIS | VIYADGRRTFYADSVK | GENAGTFDA gave 450 pM (6 of 6 replicates). Variant GFTLNSYGIS | VIYSDGLRTAYLDDVK | GRAKATFFS showed nd (0 of 6 replicates). With GFDLDEYGIS | VIYADGKRTAYSDSVK | GNQAGTFDI the result was 9.1 nM (5 of 6 replicates). Variant GFDLNEYGIS | VIYADGMRTVYADSVK | GGNAGTFDI gave 180 pM (6 of 6 replicates). Variant GFDLNEYGIS | VIYADGQRTAYADSVK | GGNAGTFDT showed 230 pM (6 of 6 replicates).

Variant GFDLNEYGIS | VIYADGRRTAYIDSVK | GQNAGTFDV gave 2.3 nM (6 of 6 replicates). With GFNLDEYGIS | VIYADGKRSMYADKVK | GVVGDFMMD the result was nd (0 of 6 replicates). Variant GFDLDEYGIS | VIYADGVRTAYSDSVK | GEVAGTFDV gave 210 pM (6 of 6 replicates). With GFNLESYGIS | VIYADGKRSSVSDSVK | GQLGNAFDM the result was nd (0 of 6 replicates). For GFDLNEYGIS | VIYADGRRTAYADSVK | GQLAGTFDV, the assay gave 320 pM (6 of 6 replicates).

For GFDLDEYGIS | VIYADGMRTAYSDSVK | GHNAGTFDV, the assay gave nd (0 of 6 replicates). Variant GFDLQEYGIS | VIYADGVRYAYQNSFK | GQIAGTFNS showed 8.8 nM (6 of 6 replicates). Variant GFDLDKYGIS | VIYADGRRSVYADDVK | GMLGATFGV gave nd (0 of 6 replicates). With GFDLNEYGIS | VIYADGQRTYYADSVK | GNTAGTFDV the result was 420 pM (6 of 6 replicates). With GWNLDEYGIS | VIYADGQRTFYAEAVK | GSNGSGITV the result was nd (0 of 6 replicates).

For GFDLNEYGIS | VIYADGRRTFYADSVK | GNVAGTFFV, the assay gave 1.0 nM (6 of 6 replicates). Variant GFDLEEYGIS | VIYADGMRTAYSDSVK | GNNAGTFDV showed 860 pM (6 of 6 replicates). Variant GFDLNEYGIS | VIYADGMRKAYADDVK | GENAGTFDV showed 69 pM (6 of 6 replicates). Variant GFNLDEYGIS | VIYADGLRTFYADSVK | GQVAGTFLM showed 3.1 nM (6 of 6 replicates). With GFDLNEYGIS | VIYADGMRTAYANSVK | GNTAGTFDV the result was 910 pM (6 of 6 replicates).

Variant GFDIDEYGIS | VIYADGMRQALIDAVK | GTLSGTFDA gave 350 pM (6 of 6 replicates). Variant GFDLNEYGIS | VIYADGMRTMYADSVK | GNVAGTFDV showed 410 pM (6 of 6 replicates). With GFDLDEYGIS | VIYADGMRTAYADDVK | GGNAGTFDL the result was 660 pM (6 of 6 replicates). With GFDLNEYGIS | VIYADGKRTAYADSVK | GSNAGTFDM the result was 1.4 nM (6 of 6 replicates). With GFDLNEYGVS | VIYADGIRTKYADSFK | GDVVVFLFQ the result was nd (0 of 6 replicates).

Variant GENIEEYGIS | VIYADGRRTAYAEPVK | GVSGGTIDT gave 150 nM (1 of 6 replicates). With GQDLNEFGIS | VIYADGIRNQYADSFK | GQNGFFFDI the result was nd (0 of 6 replicates). With GFDLDEYGIS | VIYADGVRKAYSDSVK | GNVAGTFDV the result was 130 pM (6 of 6 replicates). With GFDLNEYGIS | VIYADGRRTAYADSVK | GENAGTFVV the result was 51 nM (6 of 6 replicates). For GFDLDEYGIS | VIYADGVRTAYIDSVK | GNQAGTFDV, the assay gave 260 pM (6 of 6 replicates).

The first 7 entries again:

CDR-H1,CDR-H2,CDR-H3,apparent Kd,detected
GYDMEDYGIS,VIYADGVRQFYHDNFK,GQLAGTFLL,2.1 µM,1 of 6
GFDLNEYGIS,VIYADGMRKAYTDSVK,GNVAGTFDV,470 pM,6 of 6
GFDLNEYGIS,VIYADGRRTAYADSVK,GNEAGTFDV,310 pM,6 of 6
GDSLNEYGIS,VIYADGVRARYADAVK,GENDGLFDQ,nd,0 of 6
GKGLDEYGVS,VIYADGKRHQYAEDVK,GGIAGQFLV,nd,0 of 6
GFDLGEYGIS,VIYADGQRFAYAQQFK,GEAGGAFDL,nd,0 of 6
GFDLNEYGIS,VIYADGRRKFYADKVK,GEVAGTFNV,390 pM,6 of 6

The authors averaged sequences with at least three values out of six and counted those with two or fewer as poor binders. The range of this assay differs from that of the first round, and the authors advise against merging the two. Nonspecific signal, from three strains lacking the peptide, appeared in 1% of pairings of all heavy chain designs, centred on 120 nM (5% of these signals below 7.0 nM); values are not corrected for it. The parent sequence was in this pool as ten entries: three were never detected, three once, and four in most replicates, with averages from 2.2 nM to 240 nM.

From the AlphaSeq antibody data of Li et al. 2023 (doi:10.1038/s41467-023-39022-2), copy in the FLAb collection.